Reference: US9388142B2, “Quinazolinone derivatives as PARP inhibitors” (MERCK PATENT GMBH, priority 2012, dated 2016)
Where a name gives a salt, the structure may show the parent alone.

Sequences of proteins named here, by UniProt entry; tags and fusion partners are left off. Residues count along the entry.
UniProt Q9H2K2, 873-1166: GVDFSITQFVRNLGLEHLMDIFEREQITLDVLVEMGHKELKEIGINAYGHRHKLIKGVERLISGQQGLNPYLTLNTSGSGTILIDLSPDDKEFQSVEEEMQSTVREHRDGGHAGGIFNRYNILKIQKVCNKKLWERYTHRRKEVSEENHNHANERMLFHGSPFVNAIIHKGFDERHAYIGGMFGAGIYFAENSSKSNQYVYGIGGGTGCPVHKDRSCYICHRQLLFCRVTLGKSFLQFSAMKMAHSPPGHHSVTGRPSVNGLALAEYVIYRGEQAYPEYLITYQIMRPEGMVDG

Columns and labels:
[1] = target: GST-tagged Tankyrase-2 (873-1166 aa) (Homo sapiens, UniProt Q9H2K2); test: biochemical
From the text: aq (aqueous), h (hour), g (gram), L (liter), mg (milligram), MHz (Megahertz), min. (minute), mm (millimeter), mmol (millimole), mM (millimolar), m.p. (melting point), eq (equivalent), mL (milliliter), L (microliter), ACN (acetonitrile), AcOH (acetic acid), CDCl3 (deuterated chloroform), CD3OD (deuterated methanol), CH3CN (acetonitrile), c-hex (cyclohexane), DCC (dicyclohexyl carbodiimide), DCM (dichloromethane), DIC (diisopropyl carbodiimide), DIEA (diisopropylethyl-amine), DMF (dimethylformamide), DMSO (dimethylsulfoxide), DMSO-d6 (deuterated dimethylsulfoxide), EDC (1-(3-dimethyl-amino-propyl)-3-ethylcarbodiimide), ESI (Electro-spray ionization), EtOAc (ethyl acetate), Et2O (diethyl ether), EtOH (ethanol), HATU (dimethylamino-([1,2,3]triazolo[4,5-b]pyridin-3-yloxy)-methylene]-dimethylammonium hexafluorophosphate), HPLC (High Performance Liquid Chromatography), i-PrOH (2-propanol), K2CO3 (potassium carbonate), LC (Liquid Chromatography), MeOH (methanol), MgSO4 (magnesium sulfate), MS (mass spectrometry), MTBE (Methyl tert-butyl ether), NaHCO3 (sodium bicarbonate), NaBH4 (sodium borohydride), NMM (N-methyl morpholine), NMR (Nuclear Magnetic Resonance), PyBOP (benzotriazole-1-yl-oxy-trispyrrolidino-phosphonium hexafluorophosphate), RT (room temperature), Rt (retention time), SPE (solid phase extraction), TBTU (2-(1-H-benzotriazole-1-yl)-1,1,3,3-tetramethyluromium tetrafluoro borate), TEA (triethylamine), TFA (trifluoroacetic acid), THF (tetrahydrofuran), TLC (Thin Layer Chromatography), UV (Ultraviolet). Description of the In Vitro Assays Abbreviations: GST=Glutathione-S-transferase FRET=Fluorescence resonance energy transfer HTRF®=(homogenous time resolved fluorescence) HEPES=4-(2-hydroxyethyl)-1-piperazine ethanesulfonic acid buffer DTT=Dithiothreitol BSA=bovine serum albumin CHAPS=detergent; CHAPS=3[(3-cholamidopropyl)dimethylammonio]-1-propanesulfonate Streptavidin-XLent® is a high grade streptavidin-XL665 conjugate for which the coupling conditions have been optimized to yield a conjugate with enhanced performances for some assays, particularly those requiring high sensitivity.
The autoparsylation assay is run in two steps: the enzymatic reaction in which GST-tagged Tankyrase-1, resp Tankyrase-2 transferred biotinylated ADP-ribose to itself from biotinylated NAD as co-substrate and the detection reaction where a time resolved FRET between cryptate labelled anti-GST bound to the GST tag of the enzyme and Xlent® labelled-streptavidin bound the biotin-parsylation residue is analysed. The autoparsylation activity was detectable directly via the increase in HTRF signal.
The autoparsylation assay is performed as 384-well HTRF® (Cisbio, Codolet, France) assay format in Greiner low volume nb 384-well microtiter plates and is used for high throughput screen. […] The reaction is stopped by the addition of 1 μl 50 mM EDTA solution. […] The ratio of the emission signals is determined. The full value used is the inhibitor-free reaction. […] The inhibitory values (IC50) are determined using either the program Symyx Assay Explorer® or Condosseo® from GeneData.

[2] = system: tankyrase 1/2; test: Cellular inhibition of tankyrase: increase of Axin2 level in DLD1 cells (Luminex); assay type: cell-based; settings: 24 hours, read-out: EC50 tankyrase 1/2 (cell assay)
Experimental: Measurement of Cellular Inhibition of Tankyrase
Cells of the colon carcinoma cell line DLD1 are plated in 96 well plates with 1.5×10^4 cells per well. Next day, cells are treated with a serial dilution of test compound in seven steps as triplicates with a final DMSO concentration of 0.3%. After 24 hours, cells are lysed in lysis buffer (20 mM Tris/HCl pH 8.0, 150 mM NaCl, 1% NP40, 10% Glycerol) and lysates are cleared by centrifugation through a 96 well filter plate (0.65 μm). […] The amount of isolated Axin2 protein is determined in a Luminex^200 machine (Luminex Corporation) according to the manufacturer's instruction by counting 100 events per well. […] For analysis, the obtained data are normalized against the untreated solvent control and fitted for determination of the EC50 values using the Assay Explorer software (Accelrys).

[3] = target: GST-tagged Tnks-2 (873-1166 aa) (Homo sapiens, UniProt Q9H2K2); test: biochemical
Experimental: Description of the TNKS1 and TNKS2 ELISA Assay
Then the activity assay with biotinylated NAD is performed in the absence/presence of the compounds. During the enzymatic reaction GST tagged TNKS transfers biotinylated ADP-ribose to itself from biotinylated NAD as co-substrate. For the detection streptavidin-HRP conjugate is added that binds to the biotinylated TNKS and is thereby captured to the plates. The amount of biotinylated resp. autoparsylated TNKS is detected with a luminescence substrate for HRP. The level of the luminescence signal correlates directly with the amount of autoparsylated TNKS and therefore with activity of TNKS.
The activity ELISA is performed in 384 well Glutathione coated microtiter plates (Express capture Glutathione coated plate, Biocat, Heidelberg, Germany). The plates are pre-equilibrated with PBS. […] The plates are washed 3 times with PBS-Tween-20. The wells are blocked by incubation at room temperature for 20 minutes with 50 μl blocking buffer (PBS, 0.05% Tween-20, 0.5% BSA). Afterwards the plates are washed 3 times with PBS-Tween-20. […] The reaction is stopped by 3 times washing with PBS-Tween-20. For the detection 50 μl of 20 ng/μl Streptavidin, HRP conjugate (MoBiTec, Gottingen, Germany) in PBS/0.05% Tween-20/0.01% BSA are added and the plates are incubated for 30 minutes at room temperature. After three times washing with PBS-Tween-20 50 μl of SuperSignal ELISA Femto Maximum sensitivity substrate solution (ThermoFisherScientific (Pierce), Bonn, Germany) are added. Following a 1 minute incubation at room temperature luminescence signals are measured with an Envision multimode reader (Perkin Elmer LAS Germany GmbH) at 700 nm. The full value used is the inhibitor-free reaction. […] The inhibitory values (IC50) are determined using either the program Symyx Assay Explorer® or Condosseo® from GeneData.

Structure (SMILES)	IC50 [1] [nM]	EC50 [2] [nM]	IC50 [3] [nM]
CC(C)(O)c1ccc(-c2nc3ccc(F)cc3c(=O)[nH]2)cc1 [Compound A1, 6-fluoro-2-[4-(1-hydroxy-1-methyl-ethyl)-phenyl]-3H-quinazolin-4-one]	300 to 3000	< 300	< 300
COc1cccc2c(=O)[nH]c(-c3ccc(C(C)(C)O)cc3)nc12 [Compound A2, 2-[4-(1-hydroxy-1-methyl-ethyl)-phenyl]-8-methoxy-3H-quinazolin-4-one]	–	300 to 3000	–
CC(C)(O)c1ccc(-c2nc3c(F)cccc3c(=O)[nH]2)cc1 [Compound A3, 8-fluoro-2-[4-(1-hydroxy-1-methyl-ethyl)-phenyl]-3H-quinazolin-4-one]	< 300	300 to 3000	< 300
CC(C)(O)c1ccc(-c2nc3cccc(F)c3c(=O)[nH]2)cc1 [Compound A4, 5-fluoro-2-[4-(1-hydroxy-1-methyl-ethyl)-phenyl]-3H-quinazolin-4-one]	< 300	300 to 3000	< 300
CC(C)(O)c1ccc(-c2nc3ccc(Cl)cc3c(=O)[nH]2)cc1 [Compound A5, 6-chloro-2-[4-(1-hydroxy-1-methyl-ethyl)-phenyl]-3H-quinazolin-4-one]	300 to 3000	3000 to 50000	< 300
CC(C)(O)c1ccc(-c2nc3c(Cl)cccc3c(=O)[nH]2)cc1 [Compound A6, 8-chloro-2-[4-(1-hydroxy-1-methyl-ethyl)-phenyl]-3H-quinazolin-4-one]	< 300	–	< 300
CC(C)(OCCO)c1ccc(-c2nc3ccc(F)cc3c(=O)[nH]2)cc1 [Compound A7, 6-fluoro-2-{4-[1-(2-hydroxy-ethoxy)-1-methyl-ethyl]-phenyl}-3H-quinazolin-4-one]	300 to 3000	300 to 3000	< 300
COCCOC(C)(C)c1ccc(-c2nc3ccc(F)cc3c(=O)[nH]2)cc1 [Compound A8, 6-fluoro-2-{4-[1-(2-methoxy-ethoxy)-1-methyl-ethyl]-phenyl}-3H-quinazolin-4-one]	300 to 3000	300 to 3000	< 300
CC(C)(C)c1ccc(-c2nc3ccc(F)cc3c(=O)[nH]2)cc1 [Compound A9, 2-(4-tert-butyl-phenyl)-6-fluoro-3H-quinazolin-4-one]	300 to 3000	300 to 3000	< 300
CN1CCN(c2ccc(-c3nc4ccc(F)cc4c(=O)[nH]3)cc2)CC1 [Compound A10, 6-fluoro-2-[4-(4-methyl-piperazin-1-yl)-phenyl]-3H-quinazolin-4-one]	300 to 3000	300 to 3000	< 300
CC(C)(O)c1ccc(-c2nc3ccc(F)c(F)c3c(=O)[nH]2)cc1 [Compound A12, 5,6-difluoro-2-[4-(1-hydroxy-1-methyl-ethyl)phenyl]-3H-quinazolin-4-one]	< 300	300 to 3000	< 300
CC(C)(O)c1ccc(-c2nc3ccc(F)cc3c(=O)[nH]2)nc1 [Compound A13, 6-fluoro-2-[5-(1-hydroxy-1-methyl-ethyl)-2-pyridyl]-3H-quinazolin-4-one]	3000 to 50000	3000 to 50000	–
Cc1cc(F)cc2c(=O)[nH]c(-c3ccc(C(C)(C)OCCO)cc3)nc12 [Compound A21, 6-fluoro-2-{4-[1-(2-hydroxy-ethoxy)-1-methyl-ethyl]-phenyl}-8-methyl-3H-quinazolin-4-one]	300 to 3000	< 300	< 300
CC(C)(O)c1ccc(-c2nc3cccc(Cl)c3c(=O)[nH]2)cc1 [Compound A23, 5-chloro-2-[4-(1-hydroxy-1-methyl-ethyl)-phenyl]-3H-quinazolin-4-one]	300 to 3000	300 to 3000	< 300
Cc1cccc2c(=O)[nH]c(-c3ccc(C(C)(C)O)cc3)nc12 [Compound A24, 2-[4-(1-hydroxy-1-methyl-ethyl)-phenyl]-8-methyl-3H-quinazolin-4-one]	< 300	< 300	< 300
Cc1cc(F)cc2c(=O)[nH]c(-c3ccc(C(C)(C)O)cc3)nc12 [Compound A25, 6-fluoro-2-[4-(1-hydroxy-1-methyl-ethyl)-phenyl]-8-methyl-3H-quinazolin-4-one]	< 300	< 300	< 300
CC(C)(O)c1ccc(-c2nc3c(F)ccc(F)c3c(=O)[nH]2)cc1 [Compound A27, 5,8-difluoro-2-[4-(1-hydroxy-1-methyl-ethyl)-phenyl]-3H-quinazolin-4-one]	300 to 3000	300 to 3000	–
Cc1cc(F)cc2c(=O)[nH]c(-c3ccc(N4CCN(C)CC4)cc3)nc12 [Compound A28, 6-fluoro-8-methyl-2-[4-(4-methyl-piperazin-1-yl)-phenyl]-3H-quinazolin-4-one]	300 to 3000	< 300	< 300
Cc1cc(F)cc2c(=O)[nH]c(-c3ccc(C4CCNCC4)cc3)nc12 [Compound A33, 6-fluoro-8-methyl-2-(4-piperidin-4-yl-phenyl)-3H-quinazolin-4-one hydrochloride]	300 to 3000	< 300	< 300
O=c1[nH]c(-c2ccc(C3CCNCC3)cc2)nc2c(F)cc(F)cc12 [Compound A34, 6,8-difluoro-2-(4-piperidin-4-yl-phenyl)-3H-quinazolin-4-one hydrochloride]	300 to 3000	300 to 3000	–
